Values quoted from earlier work, collected in patent US9895730B2, “Method for extraction and surfactant enhanced subsurface contaminant recovery” (priority 2007, dated 2018).

Conditions: Table 2; cited from earlier work

Structure (SMILES): c1ccc2ccccc2c1 [Naphthalene]
- log Kow: 3.4
